{"sequences": {"note": "Chains of the proteins cited; added tags and fusions are not shown. Lines headed by an entry give the natural chain unless they say otherwise; changes in a name come on top.", "UniProt P21728, whole entry": "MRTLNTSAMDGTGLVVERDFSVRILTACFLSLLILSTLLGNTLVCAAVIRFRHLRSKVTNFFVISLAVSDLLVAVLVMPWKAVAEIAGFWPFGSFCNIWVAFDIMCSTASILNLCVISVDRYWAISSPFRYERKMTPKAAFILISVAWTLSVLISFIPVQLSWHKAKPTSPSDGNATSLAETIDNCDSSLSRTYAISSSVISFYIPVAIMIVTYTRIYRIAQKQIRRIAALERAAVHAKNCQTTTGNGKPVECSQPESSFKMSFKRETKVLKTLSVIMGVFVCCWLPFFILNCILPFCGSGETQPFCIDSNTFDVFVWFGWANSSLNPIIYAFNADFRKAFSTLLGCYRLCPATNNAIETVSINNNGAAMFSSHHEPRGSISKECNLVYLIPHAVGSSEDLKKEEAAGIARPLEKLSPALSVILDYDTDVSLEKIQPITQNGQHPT"}, "source": "patent US20220162221A1", "about": "“Imaging Agents” (UCB Biopharma SRL, priority 2017, published 2022)", "target": "human D1R (Homo sapiens, UniProt P21728)", "test": "Radioligand binding on HEK hD1R membranes with or without D1 PAM", "set-up": "expressed in transfected cells; host or cells: HEK cells, transient transfection, pcDNA3.1; membrane preparation", "settings": "HEK hD1R membranes (FIG. 3)", "method": "Transient transfection of human dopamine D1R was performed with pcDNA3.1 vector in human embryonic kidney cells (HEK hD1R).\nThe membrane of HEK hD1R cells were used to measure radioligand binding. 48 hours post transfection, cells were pelleted by centrifugation at 1,500 g and 4° C. for 10 min. Pellet was washed once with ice-cold phosphate buffered saline solution (PBS) and centrifuged as described just above. Pellet was homogenized in a buffer containing 15 mM Tris-HCl, 0.3 mM ethylene diamine tetraacetic acid, 1 mM ethylene glycol tetraacetic acid, 2 mM MgCl2 (pH 7.5) and complemented with protease inhibitor cocktail. The homogenate was freeze-thawed twice and equilibrated at 25° C. followed by a 10 min DNAse (10 U/ml) treatment. Subsequently, the solution was centrifuged at 40,000 g and 4° C. for 30 min. Finally, the pellet was resuspended in 20 mM Tris-HCl buffer (pH 7.4) containing 250 mM sucrose and store at −80° C. until D1 radioligand binding assay. Membrane preparation of HEK hD1R (5 μg proteins per assay) were incubated for 120 min at 25° C. with (−)-(Ic) or [^3H]SCH23390 in 0.2 ml binding buffer containing 1% DMSO. At the end of the incubation period, the protein-bound radioligand was recovered by filtration through pre-soaked GF/B glass fiber filters. […] The filters were dried and the radioactivity determined by liquid scintillation. […]"}
{"smiles": "CN1CCc2cc(Cl)c(O)cc2C(c2ccccc2)C1", "note": "(stereo not shown) [[^3H]SCH23390, reference compound]", "values": [{"measurement": "effect of D1 PAM on radioligand binding", "result": "no effect"}]}
